Binding of CDR-mutated scFvs to a peptide of the spike HR2 region

Target peptide (SARS-CoV-2 spike, HR2 region): PDVDLGDISGINAS

Each scFv is VH, the linker GGGGSGGGGSGGGGS, VL, as in the parent Ab-14, and differs from it in the CDRs of the heavy chain only.
VH: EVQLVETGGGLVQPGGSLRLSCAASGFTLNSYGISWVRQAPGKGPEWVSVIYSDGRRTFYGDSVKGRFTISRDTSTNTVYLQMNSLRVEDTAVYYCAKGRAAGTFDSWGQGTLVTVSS
VL: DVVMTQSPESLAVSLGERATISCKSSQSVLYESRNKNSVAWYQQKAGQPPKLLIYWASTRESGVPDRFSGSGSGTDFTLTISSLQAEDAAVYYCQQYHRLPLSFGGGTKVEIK

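The parent was found by panning a naive human phage display library on the peptide. In library AAYL49, one, two or three CDR residues were substituted; doubles and triples were drawn at random. AlphaSeq pools MATa yeast showing the antibodies with MATalpha yeast showing the peptide. Pairs that bind mate more often; barcode pairs of the diploids are counted by sequencing. Read counts were normalised to the haploid input and turned into Kd by a linear fit to BCL2-family pairs of known affinity, for each replicate. Each pool was mated in three replicate cultures.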

Changes read parent residue, position, new residue, counted from the first residue of the VH shown.
Numbers give log10(Kd / nM), so 0 is 1 nM and 3 is 1 µM. Smaller is tighter.
Averages over replicates are reported, and they cover detected replicates only.
"no signal" marks a missing value. The strain was present, yet no cells mated with the target were sequenced in any replicate, which points to weak or no binding.
For reference, the parent read 0.65 as the reference entry and 4.11 (one replicate of three) as a member of this library.

changes,mean log10 Kd (nM),replicates with signal,control signals
Y32P/G61D/R100E,no signal,0 of 3,2 of 9
S35A/D62E/A102E,no signal,0 of 3,1 of 9
L29G/G55N,4.41,1 of 3,1 of 9
L29N/Y32E/Y60F,3.51,1 of 3,3 of 9
L29S/R57K/G103E,no signal,0 of 3,0 of 9
F59T/T104N/F105L,2.60,2 of 3,0 of 9
G33D/R56Q/F59G,no signal,0 of 3,0 of 9
G26F/R57M/R100G,no signal,0 of 3,3 of 9
T28K/D54Q/S107K,no signal,0 of 3,0 of 9
I34T/Y60K/G103E,4.19,1 of 3,0 of 9
G33V/I34Q/D62S,3.67,2 of 3,2 of 9
Y52N/Y60E/A102C,no signal,0 of 3,0 of 9
F27N/N30I/G33I,4.70,2 of 3,4 of 9
Y52Q/G99H/D106W,3.50,1 of 3,0 of 9
G26M/S53E/S63N,no signal,0 of 3,0 of 9
F27Q/T28F/K65A,3.46,3 of 3,2 of 9
L29E/Y32L/R56N,4.53,3 of 3,8 of 9
G55P/T58P,no signal,0 of 3,0 of 9
G26M/V64E/A101F,5.24,1 of 3,3 of 9
I51C/R57K/G103N,no signal,0 of 3,1 of 9
G33V/G55N/D106A,no signal,0 of 3,1 of 9
T28R/G33D/F59M,3.85,1 of 3,0 of 9
V50D/Y60R/R100Q,4.29,3 of 3,2 of 9
Y52Q/V64W/K65P,4.41,1 of 3,6 of 9
S63D/R100T/A101N,0.12,3 of 3,3 of 9
S31H/S63Y,3.65,2 of 3,2 of 9
I34D/K65V/D106S,4.79,2 of 3,6 of 9
S63N/V64A,1.74,3 of 3,0 of 9
I34L/I51T/T58M,no signal,0 of 3,0 of 9
G26W/G33R/A102F,no signal,0 of 3,5 of 9
G26A/T28Y/S63R,2.59,1 of 3,0 of 9
G26W/S35V/S63R,no signal,0 of 3,0 of 9
R57Q/D106F,3.99,2 of 3,2 of 9
G33D/S53M/K65V,no signal,0 of 3,1 of 9
T28I/V50Q/D106Y,no signal,0 of 3,3 of 9
L29N/D62K/S107E,no signal,0 of 3,0 of 9
G33A/V50H/T58R,no signal,0 of 3,0 of 9
K65H/D106V/S107I,2.24,3 of 3,0 of 9
D62G/V64N/G103C,no signal,0 of 3,4 of 9
V50P/A102M/F105T,4.22,1 of 3,2 of 9
I51D/T58M/G61D,4.53,3 of 3,3 of 9
T28L/S53M/G99C,4.35,1 of 3,1 of 9
I51L/S63G/A102L,3.53,1 of 3,0 of 9
T28P/S35R/A102W,4.20,3 of 3,5 of 9
G33W/T58I,4.38,1 of 3,2 of 9
G99W/A101T/G103M,2.51,3 of 3,0 of 9
Y32S/F59D/V64K,no signal,0 of 3,1 of 9
G26E/G33A/S53H,no signal,0 of 3,1 of 9
G26R/L29P/A102C,4.98,3 of 3,3 of 9
Y32K/S53M/T58Q,4.84,2 of 3,3 of 9
R56K/R100S/S107L,-0.03,3 of 3,1 of 9
S35A/I51G/Y52C,3.02,1 of 3,1 of 9
F27K/S53Y/G99P,3.48,1 of 3,1 of 9
G26D/F59V/G61H,no signal,0 of 3,0 of 9
S31Q/I34D/V50L,5.09,1 of 3,3 of 9
S31W/G33K/K65Q,no signal,0 of 3,0 of 9
G33S/I34Y/I51N,no signal,0 of 3,1 of 9
S31E/G55K/G99F,4.17,3 of 3,3 of 9
V50W/G99E/F105S,4.71,1 of 3,1 of 9
D54R/S63K/S107D,5.08,2 of 3,4 of 9
T58K/G99M/R100H,5.87,1 of 3,3 of 9
D54K/V64L/S107P,3.63,2 of 3,0 of 9
R57S/V64A/K65C,no signal,0 of 3,1 of 9

As a blank, each scFv also met three strains without target: over library AAYL49, 15% of these pairings were detected, typically at 4.06 and seldom below 2.83. The control count says in how many pairings with the empty strains this scFv gave a signal.

Values reported by Engelhart et al. 2022, doi:10.1038/s41597-022-01779-4 (FLAb copy).